{"source": "ChEMBL document CHEMBL3868608", "about": "“Discovery of 1,3-diethyl-7-methyl-8-(phenoxymethyl)-xanthine derivatives as novel adenosine A1 and A2A receptor antagonists” (Bioorg Med Chem Lett, 2016)", "test_system": "brain", "test": "Selectivity index, ratio of Ki for adenosine receptor A2A in Sprague-Dawley rat striatal membranes to Ki for adenosine receptor A1 in Sprague-Dawley rat whole brain cell membranes", "assay_type": "cell-based", "data": [{"smiles": "CCn1c(=O)c2c(nc(COc3ccc(Br)cc3)n2C)n(CC)c1=O", "values": [{"measurement": "Ratio Ki", "result": 5.2}]}, {"smiles": "CCn1c(=O)c2c(nc(COc3ccc(OC)cc3)n2C)n(CC)c1=O", "values": [{"measurement": "Ratio Ki", "result": 0.2}]}]}
